Results: patent US20130267484A1, “TREATMENT OF RHEUMATOID ARTHRITIS WITH MASITINIB” (AB SCIENCE, priority 2010, published 2013)

System: adults with active RA
Conditions: initial phase; resolved upon masitinib interruption
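Further: Open-label phase 2a trial, oral dosing twice daily, incidence of drug-related AEs (>4%) by intensity per Common Toxicity Criteria v3.0, initial 12-week and extension phases.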

Structure (SMILES): Cc1ccc(NC(=O)c2ccc(CN3CCN(C)CC3)cc2)cc1Nc1nc(-c2cccnc2)cs1 [masitinib, 4-(4-methylpiperazin-1-ylmethyl)-N-[4-methyl-3-(4-pyridin-3ylthiazol-2-ylamino)phenyl]benzamide]
- Patients with angioedema of moderate intensity (face edema, rash and dyspnea): One
